Assay results from ChEMBL document CHEMBL1143427, “Interactions of ceftobiprole with beta-lactamases from molecular classes A to D” (Antimicrob Agents Chemother, 2007).

Substrate: CC(C)(O/N=C(\C(=O)N[C@@H]1C(=O)N2C(C(=O)[O-])=C(C[n+]3ccccc3)CS[C@H]12)c1csc(N)n1)C(=O)O
Test: Ratio of Kcat to Km of Pseudomonas aeruginosa 18SH AmpC assessed as drug hydrolysis by spectrophotometry

B1: Beta-lactamase (Pseudomonas aeruginosa (strain ATCC 15692 / PAO1 / 1C / PRS 101 / LMG12228)), P24735 (protein)
chain: MRDTRFPCLCGIAASTLLFATTPAIAGEAPADRLKALVDAAVQPVMKANDIPGLAVAISLKGEPHYFSYGLASKEDGRRVTPETLFEIGSVSKTFTATLAGYALTQDKMRLDDRASQHWPALQGSRFDGISLLDLATYTAGGLPLQFPDSVQKDQAQIRDYYRQWQPTYAPGSQRLYSNPSIGLFGYLAARSLGQPFERLMEQQVFPALGLEQTHLDVPEAALAQYAQGYGKDDRPLRVGPGPLDAEGYGVKTSAADLLRFVDANLHPERLDRPWAQALDATHRGYYKVGDMTQGLGWEAYDWPISLKRLQAGNSTPMALQPHRIARLPAPQALEGQRLLNKTGSTNGFGAYVAFVPGRDLGLVILANRNYPNAERVKIAYAILSGLEQQGKVPLKR
For B1, the kcat/Km was 15000 M⁻¹ s⁻¹.
